Results published in patent publication US8895544B2, “Indazoles” (Pfizer Limited, priority 2011, dated 2014).
pIC50: −log10 of the molar value.

The chains behind the UniProt entries cited, without tags or fusion partners. Where a name states a change or a piece, a line headed by the entry shows the natural chain unless it says otherwise.
UniProt P23458: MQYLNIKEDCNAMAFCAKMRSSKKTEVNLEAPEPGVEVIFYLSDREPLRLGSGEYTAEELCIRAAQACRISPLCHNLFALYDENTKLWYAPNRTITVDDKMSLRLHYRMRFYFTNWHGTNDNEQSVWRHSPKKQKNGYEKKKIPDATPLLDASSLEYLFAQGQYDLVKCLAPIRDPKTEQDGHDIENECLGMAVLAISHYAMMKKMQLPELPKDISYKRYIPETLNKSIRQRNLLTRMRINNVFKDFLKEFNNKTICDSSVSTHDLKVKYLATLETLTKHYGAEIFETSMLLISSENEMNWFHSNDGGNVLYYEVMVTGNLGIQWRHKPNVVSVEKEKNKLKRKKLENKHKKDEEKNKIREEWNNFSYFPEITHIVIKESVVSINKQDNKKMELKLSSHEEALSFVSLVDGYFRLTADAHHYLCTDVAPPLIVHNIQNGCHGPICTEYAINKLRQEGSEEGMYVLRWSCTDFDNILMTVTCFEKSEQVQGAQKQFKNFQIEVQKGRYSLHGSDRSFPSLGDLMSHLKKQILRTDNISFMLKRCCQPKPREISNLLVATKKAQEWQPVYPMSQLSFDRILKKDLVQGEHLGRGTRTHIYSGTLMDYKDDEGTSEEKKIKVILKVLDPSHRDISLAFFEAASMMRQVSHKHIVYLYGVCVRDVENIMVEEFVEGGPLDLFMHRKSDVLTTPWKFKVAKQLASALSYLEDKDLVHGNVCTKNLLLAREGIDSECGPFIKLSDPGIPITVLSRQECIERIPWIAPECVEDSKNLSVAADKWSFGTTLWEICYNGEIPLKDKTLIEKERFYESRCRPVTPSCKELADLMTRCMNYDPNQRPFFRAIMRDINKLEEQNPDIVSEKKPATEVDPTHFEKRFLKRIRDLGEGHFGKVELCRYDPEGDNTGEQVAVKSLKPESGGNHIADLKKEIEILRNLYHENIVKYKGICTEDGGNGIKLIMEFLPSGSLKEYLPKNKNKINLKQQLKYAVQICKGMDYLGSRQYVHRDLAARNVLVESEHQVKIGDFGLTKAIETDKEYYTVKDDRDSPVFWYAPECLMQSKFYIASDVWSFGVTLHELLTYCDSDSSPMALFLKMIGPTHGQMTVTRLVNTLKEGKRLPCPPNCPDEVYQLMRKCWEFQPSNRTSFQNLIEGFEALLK

Assays:
[1] = target: T1, JAK1 (Homo sapiens (Human), UniProt P23458); test: JAK1 PathHunter assay (prolactin response, U2OS cell line); format: cell-based; conditions: PathHunter U2OS cell line expressing JAK1, prolactin challenge; read-out: JAK-1 IC50
[2] = target: T1, JAK1; test: JAK1 isolated enzyme high ATP Caliper endpoint assay; format: biochemical; conditions: 2.5 mM ATP, read-out: JAK-1 IC50;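 also: enzyme at 10 nM preincubated with inhibitor 30 min, then kinase reaction 120 min at room temperature, peptide phosphorylation read by microfluidic mobility shift with fluorescence, inhibition relative to HPE and ZPE plate controls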
Description: JAK1 Isolated Enzyme High ATP Caliper Endpoint Assay;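 also: enzyme at 10 nM preincubated with inhibitor 30 min, then kinase reaction 120 min at room temperature, peptide phosphorylation read by microfluidic mobility shift with fluorescence, inhibition relative to HPE and ZPE plate controls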
4 mM stock solutions of test compounds are prepared and serially diluted in 100% DMSO. A standard curve using PF-00956980 (commercially available from Sigma Aldrich) at a top concentration of 4 mM is also prepared. High percentage effect (HPE) is defined by 500 μM PF-00956980 and 0% effect (ZPE) is defined by 100% DMSO. Greiner 384 well plates are prepared containing 400 nl of serially diluted compound, standard and HPE/ZPE. Final top assay concentration is 80 μM as the assay dilution factor is fifty.
JAK1 enzyme (Invitrogen) stock solution is made up at 5.2 μM in sterile water. […]
Assays are performed in Greiner polypropylene 384 well plates. […] Data is generated by the shift in mobility of non-phosphorylated peptide substrates and phosphorylated products by electrophoresis within a chip and detected via LED induced fluorescence. Data is analysed using LabChip EZReader software which calculates the relative heights of the substrate and product peaks and reports product/product plus substrate peak ratio. Test compound data are subsequently expressed as percentage inhibition defined by HPE and ZPE values for each plate. […]

CCc1cc(O)c(F)cc1-c1ccc2c(-c3nc4c([nH]3)CCN(C(=O)c3cnc(N5CCCCC5)cn3)C4)n[nH]c2c1 [Example 4, {2-[6-(2-Ethyl-5-fluoro-4-hydroxy-phenyl)-1H-indazol-3-yl]-1,4,6,7-tetrahydro-imidazo[4,5-c]pyridin-5-yl}-(5-piperidin-1-yl-pyrazin-2-yl)-methanone]
pIC50 [1]: 7.12 | pIC50 [2]: 8.27
